Results on seven compounds are retold here after ChEMBL document CHEMBL4725398 (Bioorg Med Chem, 2020).

The species named for the assay is Homo sapiens.
Regarding `C=C(Cl)C(=O)Nc1cccc(Nc2nc(Nc3ccc(N4CCN(C(C)=O)CC4)cc3OC)ncc2C(F)(F)F)c1`, the Selectivity Index was determined as 16.1.
With `C=C(Cl)C(=O)Nc1cccc(Nc2nc(Nc3ccc(N4CCN(C(C)=O)CC4)cc3Cl)ncc2Cl)c1` the figure was 6.4.
The result for `C=C(Cl)C(=O)Nc1cccc(Nc2nc(Nc3ccc(N4CCN(C(C)=O)CC4)nc3)ncc2Cl)c1` reads 17.3.
With `C=C(Cl)C(=O)Nc1cccc(Oc2nc(Nc3ccc(N4CCN(C(C)=O)CC4)cc3)ncc2Cl)c1` the figure was 10; with `C=C(Cl)C(=O)Nc1cccc(Nc2nc(Nc3ccc(N4CCN(C(C)=O)CC4)c(Cl)c3)ncc2Cl)c1`, 16.6; with `C=C(Cl)C(=O)Nc1cccc(Nc2nc(Nc3ccc(N4CCN(C(C)=O)CC4)c(C)c3)ncc2Cl)c1`, 19.6.
Turning to `C=C(Cl)C(=O)Nc1cccc(Nc2nc(Nc3ccc(N4CCN(C(C)=O)CC4)cc3)ncc2Cl)c1`, the Selectivity Index was found to be 17.9.
